1 compound from paper PMC5076878 (Bioorganic & medicinal chemistry letters, 2016) can be followed below.

Sequences of proteins named here, by UniProt entry; tags and fusion partners are left off. A change or cut given only in a name is not applied to a line headed by its entry.
UniProt Q01650: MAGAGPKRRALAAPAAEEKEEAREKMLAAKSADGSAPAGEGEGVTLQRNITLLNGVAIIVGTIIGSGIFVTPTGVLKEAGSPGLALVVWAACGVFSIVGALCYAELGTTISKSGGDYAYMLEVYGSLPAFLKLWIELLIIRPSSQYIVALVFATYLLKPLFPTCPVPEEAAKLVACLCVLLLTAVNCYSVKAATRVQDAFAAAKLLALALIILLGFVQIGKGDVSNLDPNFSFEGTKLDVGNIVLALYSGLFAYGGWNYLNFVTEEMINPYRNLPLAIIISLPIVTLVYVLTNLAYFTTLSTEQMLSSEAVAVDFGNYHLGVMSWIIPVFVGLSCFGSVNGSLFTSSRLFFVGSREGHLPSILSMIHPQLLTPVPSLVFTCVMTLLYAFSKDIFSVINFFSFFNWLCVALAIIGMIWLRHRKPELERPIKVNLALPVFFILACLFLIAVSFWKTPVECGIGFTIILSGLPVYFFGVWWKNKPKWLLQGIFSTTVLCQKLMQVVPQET

The experiment has as its target human LAT1 (Homo sapiens, UniProt Q01650). Type of experiment: cell-based. As to conditions: compound at 200 μM; pre-loaded HEK-hLAT1 cells; at least triplicate.

For `N[C@@H](Cc1ccc(O)cc1)C(=O)O` [Compound 1b, tyrosine, reference compound], the “Efflux Rate of [3H]-gabapentin” value is 2.6 ± 0.4 fmol/min.
